Data from PubChem BioAssay AID504411 (The Scripps Research Institute Molecular Screening Center, 2011).
Only a part is listed here, and it is no random draw. Activity calls are given as the source filed them. Cut-off read from the data, not from the text of the source: active = inhibition above about 34%; inactive = the rest.

Protein sequences, listed by entry. Tags and fused reporters are not part of them.
UniProt Q8NCG7, whole entry: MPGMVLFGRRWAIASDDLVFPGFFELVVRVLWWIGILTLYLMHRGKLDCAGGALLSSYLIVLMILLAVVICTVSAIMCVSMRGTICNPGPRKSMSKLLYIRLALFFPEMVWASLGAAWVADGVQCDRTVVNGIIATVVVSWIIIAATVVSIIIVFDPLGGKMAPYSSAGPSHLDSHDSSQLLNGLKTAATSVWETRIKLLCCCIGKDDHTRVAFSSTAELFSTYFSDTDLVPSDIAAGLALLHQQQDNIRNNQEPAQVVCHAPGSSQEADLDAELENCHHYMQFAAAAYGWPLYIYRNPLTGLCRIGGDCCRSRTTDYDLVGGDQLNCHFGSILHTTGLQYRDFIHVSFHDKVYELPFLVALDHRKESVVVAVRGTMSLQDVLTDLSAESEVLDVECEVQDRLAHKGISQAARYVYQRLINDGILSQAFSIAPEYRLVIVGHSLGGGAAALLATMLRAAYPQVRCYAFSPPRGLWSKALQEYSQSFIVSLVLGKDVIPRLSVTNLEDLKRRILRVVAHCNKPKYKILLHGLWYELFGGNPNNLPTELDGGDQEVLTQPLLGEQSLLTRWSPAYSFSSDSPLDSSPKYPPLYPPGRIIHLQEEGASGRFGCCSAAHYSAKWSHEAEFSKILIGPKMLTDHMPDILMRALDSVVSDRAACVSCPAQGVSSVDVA

Molecular target: Diacylglycerol lipase-beta (Homo sapiens) (UniProt Q8NCG7)
Test: DAGLB lipase inhibitors, primary screen, biochemical, fluorescence, HTS (AID 504411);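 note: 0% = enzyme with vehicle and 100% = wells lacking enzyme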
Settings: HEK293T DAGLB membrane lysate, EnzChek fluorogenic substrate; at 5.17 µM; active compounds read high

SMILES | inhibition
CN(C)C1(CNC(=O)c2cccc(C#N)c2)CCCCC1 | inactive: -0.33%
CCCN1CCC(Nc2cc(OC)cc(OC)c2)CC1 | inactive: -1.19%
Cc1cc(N(CCCl)CCCl)ccc1C=O | inactive: -1.51%
c1ccc(CN2CCC(Nc3ccccc3)CC2)cc1 | inactive: -1.07%
N#Cc1ccc(C(=O)NCC2(N3CCCCC3)CCCCC2)cc1 | inactive: 0.84%
CC(C)(C)OC(=O)N1CCC(N(C(=O)c2ccccc2)c2ccc(Cl)cc2)CC1 | inactive: -3.64%
CCOC(=O)N1CCC(Nc2ccc(C)cc2)CC1 | inactive: -5.9%
N/C(=N\O)c1c(N)no[n+]1[O-] | inactive: -0.2%
O=C(OC1CN2CCC1CC2)C1c2ccccc2C=Cc2ccccc21 (stereo not given) | inactive: -0.87%
COc1cc(C(=O)NCC2(N3CCOCC3)CCCCC2)cc(OC)c1C | inactive: -3.64%
O=C(NCC1(N2CCOCC2)CCCCC1)c1cc(Br)ccc1Cl | inactive: -3.35%
COc1ccc(C(=O)NCC2(N3CCOCC3)CCCCC2)cc1OC | inactive: -0.64%
COc1cc(OC)cc(C(=O)NCC2(N3CCOCC3)CCCCC2)c1 | inactive: -2.75%
COc1cccc(C(=O)N(c2cc(C)cc(C)c2)C2CCN(C(=O)OC(C)(C)C)CC2)c1 | inactive: -6.11%
CCC(CO)(C(=O)OC1CN2CCC1CC2)c1ccccc1 (stereo not given) | inactive: -0.32%
CN1CCC(Nc2ccc(Cl)cc2)CC1 | inactive: 0.06%
CN1CCC(Nc2ccc(F)c(Cl)c2)CC1 | inactive: 2.91%
CCOc1ncccc1C(=O)NCC1(N2CCOCC2)CCCCC1 | inactive: -0.27%
O=C(O)C1(Nc2ccccc2)CCN(Cc2ccccc2)CC1 | inactive: -1.19%
CC(C)(C)OC(=O)N1CCC(Nc2ccccc2)CC1 | inactive: 1.52%
CCCOc1ccc(C(=O)NCC2(N(C)C)CCCCC2)cc1 | inactive: 0.48%
CCN1CCC(Nc2cccc(F)c2)CC1 | inactive: 6.73%
Cc1ccccc1NC1(C#N)CCN(Cc2ccccc2)CC1 | inactive: 8.34%
Cn1c(=O)[nH]cc(N(CCCl)CCCl)c1=O | inactive: -1.32%
CN(C)c1ccc(C(=O)NCC2(N3CCCCC3)CCCCC2)cc1 | inactive: -2.09%

SMILES | inhibition
O=C(NCC1(N2CCCCC2)CCCCC1)c1ccco1 | inactive: -0.37%
CC(=O)N(c1ccccc1)C1CCNCC1 | inactive: -0.71%
COc1cc(OC)cc(C(=O)NCC2(N3CCCCC3)CCCCC2)c1 | inactive: -0.68%
Fc1ccccc1NC1CCN(Cc2ccccc2)CC1 | inactive: 0.44%
Cc1ccc(C(=O)NCC2(N3CCCCC3)CCCCC2)o1 | inactive: 3.6%
Cc1ccc(NC2(C#N)CCN(Cc3ccccc3)CC2)cc1 | inactive: 1.97%
COc1cc(C(=O)NCC2(N(C)C)CCCCC2)ccc1OC(F)F | inactive: -3.06%
CCOC(=O)N1CCC(Nc2cccc(C)c2)CC1 | inactive: -0.23%
O=C1CCN(Cc2ccccc2)CC1 | inactive: -0.74%
CCOc1ccc(C)cc1CN(CCCl)CCCl | inactive: -2.08%
COc1ccc(NC2CCN(CCc3ccccc3)CC2)c(OC)c1 | inactive: 0.64%
CCOC(=O)N1CCC(Nc2ccc(F)cc2)CC1 | inactive: -2.5%
O=C(NCC1(N2CCCCC2)CCCCC1)c1ccc(F)cc1 | inactive: -1.51%
O=P1(N(CCCl)CCCl)SCCCS1 | inactive: -2%
CCCCOc1ccc(C(=O)NCC2(N3CCOCC3)CCCCC2)cc1 | inactive: -2.11%
Cc1cc(C)cc(N(C(=O)c2ccccc2)C2CCN(C(=O)OC(C)(C)C)CC2)c1 | inactive: -5.1%
O=C(NCC1(N2CCCCC2)CCCCC1)c1ccc(Cl)nc1 | inactive: 2.09%
O=C(NCC1(N2CCOCC2)CCCCC1)c1cc2ccccc2o1 | inactive: -0.23%
COc1ccc(Cl)cc1C(=O)NCC1(N2CCOCC2)CCCCC1 | inactive: -0.83%
O=C(OC1CN2CCC1CC2)C1c2ccccc2Oc2ccccc21 (stereo not given) | inactive: -0.3%
O=C(NCC1(N2CCCCC2)CCCCC1)c1ccc(Cl)s1 | inactive: -3.21%
N#CC1(Nc2ccccc2)CCN(Cc2ccccc2)CC1 | inactive: -2.51%
CCOC(=O)N1CCC(Nc2ccc(OC)cc2)CC1 | inactive: -1.42%
COc1ccc(C(=O)NCC2(N3CCCCC3)CCCCC2)c(OC)c1OC | inactive: 2.54%
CC(C)(C)OC(=O)N1CCC(N(C(=O)c2ccccc2)c2ccc(F)cc2)CC1 | inactive: -0.21%

SMILES | inhibition
COc1ccc(C(=O)NCC2(N3CCCCC3)CCCCC2)cc1 | inactive: -2.03%
O=C(NCC1(N2CCCCC2)CCCCC1)c1cccs1 | inactive: 2.18%
O=C(NCC1(N2CCCCC2)CCCCC1)c1ccc(=O)[nH]c1 | inactive: 1%
Cc1cccc(NC2(C#N)CCN(Cc3ccccc3)CC2)c1 | inactive: -1.8%
CSc1ccccc1C(=O)NCC1(N2CCCCC2)CCCCC1 | inactive: -4.25%
O=C(NCC1(N2CCCCC2)CCCCC1)c1cncc(Br)c1 | inactive: -0.9%
CN1CCC(Nc2cccc(F)c2)CC1 | inactive: 0.38%
CCCOc1ccc(C(=O)NCC2(N(C)C)CCCCC2)cc1OC | inactive: -1.25%
Cc1ccc(C(=O)NCC2(N(C)C)CCCCC2)o1 | inactive: -0.74%
CC(C)c1ccc(NC2CCN(C(=O)OC(C)(C)C)CC2)cc1 | inactive: -4.42%
CN(C)c1cccc(C(=O)NCC2(N3CCCCC3)CCCCC2)c1 | inactive: 4.03%
COc1ccc(CN(CCCl)CCCl)cc1Cl | inactive: -0.49%
O=C(NCC1(N2CCOCC2)CCCCC1)c1cc(F)c(F)cc1Cl | inactive: 0.48%
COc1cc(OC)c(C(=O)NCC2(N(C)C)CCCCC2)cc1OC | inactive: -2.8%
O=C(NCC1(N2CCCCC2)CCCCC1)c1cccc(C(F)(F)F)c1 | inactive: -0.85%
COc1cc(C(=O)NCC2(N3CCCCC3)CCCCC2)ccc1OC(F)F | inactive: -1.89%
O=C(NCC1(N2CCOCC2)CCCCC1)c1cc(=O)[nH]c2ccccc12 | inactive: 1.82%
CN1CCN(CCOC(=O)C(O)(c2ccccc2)c2ccccc2)CC1 | inactive: 0.77%
COc1ccc(NC2CCN(C(=O)OC(C)(C)C)CC2)cc1 | inactive: -1.43%
CC(C)c1ccc(C(=O)NCC2(N3CCOCC3)CCCCC2)cc1 | inactive: -0.55%
O=C(NCC1(N2CCCCC2)CCCCC1)c1ccc(OC(F)F)cc1 | inactive: 1.19%
N#CC1(Nc2ccccc2)CCN(CCc2ccccc2)CC1 | inactive: -2.89%
CCN1CCC(Nc2ccc(Cl)cc2)CC1 | inactive: -1.08%
O=C(NCC1(N2CCCCC2)CCCCC1)c1cccc([N+](=O)[O-])c1 | inactive: 0.92%
CSc1ccc(C(=O)NCC2(N3CCOCC3)CCCCC2)cc1 | inactive: -0.6%
